# scFv variants of Ab-91 (heavy chain) against a SARS-CoV-2 spike peptide

From the AlphaSeq antibody data of Engelhart et al. 2022 (doi:10.1038/s41597-022-01779-4), copy in the FLAb collection.

Target peptide (SARS-CoV-2 spike, HR2 region): PDVDLGDISGINAS

Parent scFv Ab-91: VL joined to VH by three GGGGS repeats. Changes lie in the heavy chain CDRs alone.
VL: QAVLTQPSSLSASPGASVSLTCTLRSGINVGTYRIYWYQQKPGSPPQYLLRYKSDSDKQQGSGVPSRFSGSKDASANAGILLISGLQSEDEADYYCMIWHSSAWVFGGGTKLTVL
VH: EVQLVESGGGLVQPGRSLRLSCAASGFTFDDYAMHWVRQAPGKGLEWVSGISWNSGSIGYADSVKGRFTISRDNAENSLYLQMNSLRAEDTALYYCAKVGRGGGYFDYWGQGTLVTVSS

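The parent was found by panning a naive human phage display library on the peptide. Library AAYL51 holds single substitutions and randomly drawn double and triple substitutions in the CDRs. AlphaSeq pools MATa yeast showing the antibodies with MATalpha yeast showing the peptide. The frequency of each diploid, read from paired DNA barcodes, reflects how well the two displayed proteins bind. Scores were corrected for input abundance and mapped to Kd with protein pairs of known affinity run in the same pool. Mating was done three times.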

Each variant is given by its three heavy chain CDRs, as the data file delimits them; those of the parent are GFTFDDYAMH, GISWNSGSIGYADSVK, VGRGGGYFDY. This list gathers variants with a substitution at F27 (VH, numbered from residue 1). Kd is apparent (estimated from mating counts) and averaged on the log scale over replicates with a signal. Smaller is tighter. A pair that was not seen in any replicate is written "nd"; this usually means weak binding, but a binder can also be missed. Entries are sorted by rising average, undetected variants last. Parent in this assay: reference entry 72 nM, copy in this library 7.5 nM. Background: pairings of library AAYL51 with three empty control strains gave a value in 21% of cases (median 34 µM, 5th percentile 1.8 µM). Values in that range, when seen in few replicates, are hard to tell from nonspecific mating.

- GRTFDDYAMH | GISSNSGSIGYADSVK | VGRGGGYFDY: 4.7 µM (1 of 3 replicates)
- GRTFDDYASH | GISWNSGSIGYADSVK | VGRWGGYFDY: 36 µM (1 of 3 replicates)
- GHTVDDYAMH | PISWNSGSIGYADSVK | VGRGGGYFDY: 80 µM (1 of 3 replicates)
- GCTFDSYAMH | GISWNSGSIGYADSVK | VGRGGGYFDY: 190 µM (2 of 3 replicates)
- GDTFDDYAMH | GISWNSGEIGYADSVK | HGRGGGYFDY: 240 µM (2 of 3 replicates)
- GATFDDPAMH | GISWNSGSIGYARSVK | VGRGGGYFDY: 310 µM (1 of 3 replicates)
- GPTFDDYLMH | GISWNSGSIGYADSVK | VGRLGGYFDY: nd (0 of 3 replicates)
- GRTFDDYAMH | EISWNSGSIGYADSVR | VGRGGGYFDY: nd (0 of 3 replicates)
- GRTFDDYAMH | GIATNSGSIGYADSVK | VGRGGGYFDY: nd (0 of 3 replicates)
- GRTFDDYAMH | GIRWNSGSIGYADKVK | VGRGGGYFDY: nd (0 of 3 replicates)